The chains behind the UniProt entries cited, without tags or fusion partners.
UniProt P50579, whole entry: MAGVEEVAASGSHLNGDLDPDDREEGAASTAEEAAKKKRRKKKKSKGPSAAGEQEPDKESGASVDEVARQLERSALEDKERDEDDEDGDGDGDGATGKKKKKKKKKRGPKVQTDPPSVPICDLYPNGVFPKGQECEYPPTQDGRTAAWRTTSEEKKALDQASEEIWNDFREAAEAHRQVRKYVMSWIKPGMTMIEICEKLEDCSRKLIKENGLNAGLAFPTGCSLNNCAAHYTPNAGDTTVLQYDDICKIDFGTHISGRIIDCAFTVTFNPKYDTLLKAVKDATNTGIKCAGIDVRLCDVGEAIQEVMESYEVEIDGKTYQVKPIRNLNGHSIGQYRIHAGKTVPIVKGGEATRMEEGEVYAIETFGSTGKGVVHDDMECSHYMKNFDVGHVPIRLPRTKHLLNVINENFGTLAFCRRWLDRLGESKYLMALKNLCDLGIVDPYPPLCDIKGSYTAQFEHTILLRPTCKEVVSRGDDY

In patent US8846694B2, “Pyrrolidone derivatives for use as MetAP-2 inhibitors” (Merck Patent GmbH, priority 2008, dated 2014):

Target: MetAP-2 (Homo sapiens, UniProt P50579)
Assay: MetAP-2 activity measurement (coupled enzymatic reactions, substrate Met-Arg-Ser, photometric at 450 nm)
Conditions: read-out: IC50 enzyme (Inhibition of MetAP-2)

Row | SMILES | IC50 [µM]
1 | c1ccc2c(OC[C@H]3CCCN3c3ncnc4[nH]cnc34)ncnc2c1 | > 10
2 | CCCCOCc1ccc(OC[C@H]2CCCN2c2ncnc3[nH]cnc23)c2ccccc12 | 0.01 to 1
